Test results reported in patent publication US7585839B2, “Medical uses of intercellular communication facilitating compounds” (Zealand Pharma A/S, priority 2001, dated 2009).
Marks after values point to notes of the source that are not given here.

What was measured:
[1] = In vitro plasma and serum stability, human; format: in vitro ADME; details: for T½, SERUM HUMAN / T½, PLASMA, HEPARIN HUMAN: 37° C., 0.1 mg/ml
Protocol: (§1) The stability of peptides is analysed in serum and plasma. The peptides are incubated at 37° C. in plasma or serum and samples taken at approx. 9 regular intervals between t=0 and t=156 min are analysed by HPLC.
(§2) This is done by subsequent injections of the drug, plasma, and a co-injection with the drug and the plasma, followed by optimisation of the LC method parameters until a satisfactory separation is obtained. Three parallel experiments are performed for each plasma type. 100 ml of peptide is mixed with 900 ml plasma at t=0 and incubated at 37° C. (drug-plasma mixture conc. 0.1 mg/ml). Samples of 100 ml of the drug-plasma mixture are removed at appropriate intervals and the degradation stopped by precipitation of the sample with 10 ml MeCN:TFA 50:50 v/v. A control plasma sample without the drug treated in the same manner is also taken. The plasma samples are centrifuged for 15 min. at 12,000 rpm (Eppendorf centrifuge) at ambient temperature. The resulting supernatant solution is transferred to 300 ml HP autosamler vials and analyzed by HPLC. The samples are analyzed in the following order: blank, the peptide at 0.1 mg/mL, the plasma without the peptide, the three parallel samples for t=0, the three parallel samples for t=5 min. the three parallel samples for t=10 min. etc. And finally the three parallel samples for t=0 are repeated to make sure that there have been no degradation or other failure during the analyses. The sample concentrations (peak height in mAU) are plotted vs. time and fitted to a function describing a mono exponential decay (Excel).

[2] = tested on: excisional wounds on the back skin; experiment: Excisional wound healing in mice (planned); format: in vivo; details: 5 days treatment
Protocol: To examine wound healing in vivo, Compound 2 and Compound 40 is administered topically (concentration range 10-9- 10-6 mol/l in aqueous gel) and parenterally (10-10-10-6 mol/kg) two to four times daily to mice. Two round excisional wounds are created down the panniculus carnosus with a 6-mm punch biopsy on the back skin of each mouse. After 5 days treatment with compound 2 and compound 40 the effect of skin is evaluated histologically by microscopy of biopsies and wound healing is measured by daily measurements of the diameter of the wound.

[3] = In vitro plasma and serum stability, rabbit; format: in vitro ADME; details: 37° C., 0.1 mg/ml
Protocol: as §1, §2

[4] = tested on: GJIC in Cardiomyocytes; experiment: Intercellular conductance (Gj) in isolated cardiomyocyte pairs, double patch clamp; format: cell-based, guinea pig; details: 10^−8 M; steady-state after about 400 seconds of stimulation
[5] = In vitro plasma stability under sterile conditions, human plasma; format: in vitro ADME; details: heparin, 90%, 0.2 mM
[6] = In vitro plasma stability under sterile conditions, rat plasma; format: in vitro ADME; details: heparin, 90%, 0.2 mM
[7] = In vitro plasma stability, rat; format: in vitro ADME; details: 37° C., 0.1 mg/ml
Protocol: as §1
as §2, with “And finally the three parallel samples for t=0 are repeated to make sure that there have been no degradation or other failure during the analyses. The sample concentrations (peak height in mAU) are plotted vs. time and fitted to a function describing a mono exponential decay (Excel).” left out

## H-Gly-Asn-Tyr-NH2 [Compound 41]
[1]
  Human plasma half life: 1.05 h

## Ac-Gly-Asn-Tyr-NH2 [Compound 40]
[2]
  skin structure, histology: will not affect skin structure alone
[1]
  Human plasma half life: 35.67 h

## CF3C(O)-AAP10-NH2
[3]
  T½, PLASMA, HEPARIN RABBIT: 3.8 hrs ± 0.5%
[1]
  Human plasma half life: 4 h
  T½, SERUM HUMAN: 3.1 hrs ± 10%

## Ac-D-Tyr-D-Pro-D-4Hyp-Gly-D-Ala-Gly-NH2 [Compound 2]
[4]
  ΔGj (relative change of intercellular conductance): +120±46%
[3]
  T½, PLASMA, HEPARIN RABBIT: >5 h
[5]; incub. 7 days
  Plasma stability, half-life: 338 h
[2]
  skin structure, histology: will not affect skin structure alone
[1]
  Human plasma half life: >5 h
  stability in plasma and serum compared with AAP10: considerably more stable
  T½, PLASMA, HEPARIN HUMAN: >5 h
  T½, SERUM HUMAN: >5 h
[6]; incub. 7 days
  Plasma stability, half-life: 247 h

## H-Gly-Ala-Gly-Asn-Tyr-NH2 [Compound 39]
[1]
  Human plasma half life: 0.12 h

## [Pro^4]AAP10-NH2 [reference compound]
[1]
  Human plasma half life: 0.083 h

## 3(4-hydroxyphenyl)propionyl-Pro-Hyp-Gly-Ala-Gly-Lys-Lys-Lys-Lys-Lys-Lys-NH2 [Compound 51]
[1]
  Human plasma half life: >5 h

## Cyclo(Tyr-Pro-4Hyp-Gly-Ala-Gly-Asn) [Compound 3]
[3]
  T½, PLASMA, HEPARIN RABBIT: >5 h
[1]
  Human plasma half life: >5 h
  stability in plasma and serum compared with AAP10: considerably more stable
  T½, SERUM HUMAN: >5 h

## 3(4-hydroxyphenyl)propionyl-Pro-Hyp-Gly-Ala-Gly-Lys-Lys-Lys-Lys-Lys-Lys-OH [Compound 49]
[1]
  Human plasma half life: 0.033 h
  stability in plasma and serum compared with AAP10: considerably more stable

## H-Gly-Ala-Gly-Hyp-Pro-Tyr-NH2 [AAP10, reference compound]
[7]
  T½, PLASMA, HEPARIN RAT: 8.2 min ± 13%
[3]
  T½, PLASMA, HEPARIN RABBIT: 9.5 min ± 12%
  T½, SERUM RABBIT: 2.7 min ± 4%
[5]; incubation 20 min
  Plasma stability, half-life: 0.03 h
[1]
  Human plasma half life: 0.217 h
  half life in plasma and serum: less than 10 minutes
[6]; incubation 20 min
  Plasma stability, half-life: 0.0633 h

## 3-(4-hydroxyphenyl)propionyl-Pro-Hyp-Gly-Ala-Gly-OH [HP5, reference compound]
[3]
  T½, PLASMA, HEPARIN RABBIT: 3.7 min ± 1%

## H-DY-DN-G-NH2
[1]
  Human plasma half life: 4.93 h
  T½, PLASMA, HEPARIN HUMAN: 296 min ± 34%

## H-Gly-Ala-Gly-Hyp-Pro-Tyr-Lys-Lys-Lys-Lys-Lys-Lys-OH [Compound 48]
[1]
  stability in plasma and serum compared with AAP10: considerably more stable
[1]; measured in EDTA plasma
  Human plasma half life, min.: 87* min

## H-Gly-Pro-Hyp-Gly-Ala-Gly-OH [AAP, reference compound]
[3]
  T½, PLASMA, HEPARIN RABBIT: 4.4 min ± 12%
[1]
  Human plasma half life: 0.13 h
  T½, PLASMA, HEPARIN HUMAN: 7.6 min ± 6%
